{"sequences": {"note": "The chains behind the UniProt entries cited, without tags or fusion partners.", "UniProt Q9R0N0, whole entry": "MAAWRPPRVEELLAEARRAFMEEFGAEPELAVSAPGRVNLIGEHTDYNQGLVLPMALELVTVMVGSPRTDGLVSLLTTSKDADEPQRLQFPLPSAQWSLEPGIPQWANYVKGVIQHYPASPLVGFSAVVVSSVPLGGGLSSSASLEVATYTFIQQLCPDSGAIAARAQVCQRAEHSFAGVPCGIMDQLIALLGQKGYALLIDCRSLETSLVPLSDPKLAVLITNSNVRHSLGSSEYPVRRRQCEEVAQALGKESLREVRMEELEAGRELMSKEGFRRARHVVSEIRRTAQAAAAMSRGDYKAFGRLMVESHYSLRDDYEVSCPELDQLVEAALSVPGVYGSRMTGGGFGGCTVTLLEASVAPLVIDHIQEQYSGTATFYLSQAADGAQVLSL", "UniProt P51570, whole entry": "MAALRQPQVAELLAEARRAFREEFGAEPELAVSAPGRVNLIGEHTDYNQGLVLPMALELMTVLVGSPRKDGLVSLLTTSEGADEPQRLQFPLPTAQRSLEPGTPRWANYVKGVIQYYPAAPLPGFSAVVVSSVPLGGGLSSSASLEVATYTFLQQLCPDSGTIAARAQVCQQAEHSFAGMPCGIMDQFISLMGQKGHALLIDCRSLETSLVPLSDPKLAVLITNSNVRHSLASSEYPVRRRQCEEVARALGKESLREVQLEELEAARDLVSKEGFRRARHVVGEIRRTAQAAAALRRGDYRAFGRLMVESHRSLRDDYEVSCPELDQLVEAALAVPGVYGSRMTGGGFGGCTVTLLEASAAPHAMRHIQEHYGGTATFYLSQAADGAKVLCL"}, "source": "patent US20230158025A1", "about": "(UNIVERSITY OF UTAH RESEARCH FOUNDATION, priority 2020, published 2023)", "key": {"[1]": {"experiment": "aqueous kinetic solubility", "assay_type": "physicochemical"}, "[2]": {"experiment": "rat microsomal stability (RLM)", "assay_type": "in vitro ADME", "details": "microsomal stability half-life"}, "PAMPA permeability": {"experiment": "PAMPA permeability", "assay_type": "in vitro ADME"}, "recombinant mouse GALK1": {"molecular_target": "recombinant mouse GALK1 (Mus musculus, UniProt Q9R0N0)", "experiment": "mGALK1 biochemical activity assay (Kinase-Glo Plus, ATP depletion)"}, "recombinant human GALK1": {"molecular_target": "recombinant human GALK1 (Homo sapiens, UniProt P51570)", "experiment": "hGALK1 biochemical activity assay (Kinase-Glo Plus, ATP depletion)"}}, "note": "pIC50: −log10 of the molar value. Like-named read-outs stand apart in the source and are kept apart here.", "data": [{"compound": "CC1=C(C(=O)Nc2ccc3nc(C)sc3c2)C(c2ccccc2Cl)N=C(Nc2nc3ccccc3o2)N1", "note": "(stereo not shown)", "values": [{"measurement": "Sol.", "setting": "[1]", "value": "<1", "unit": "µg/mL"}, {"measurement": "Metab. Stabil. (m)", "setting": "[2]", "value": ">30", "unit": "m"}, {"measurement": "Perm. (1 × 10^−6 cm/sec)", "setting": "PAMPA permeability", "value": "<4.2 1 × 10^−6 cm/sec"}, {"measurement": "pIC50", "setting": "recombinant mouse GALK1; read-out: mGALK IC50, Tables 2-15, 35 μM ATP, 100 μM galactose, 1 h, bracketed figure after some values is undefined and not reported", "value": 4.86}, {"measurement": "pIC50", "setting": "recombinant mouse GALK1; read-out: mGALK, recombinant mouse GALK1, Kinase-Glo Plus ATP depletion", "value": 4.86}, {"measurement": "pIC50", "setting": "recombinant human GALK1; read-out: hGALK IC50, Tables 2-15, 35 μM ATP, 100 μM galactose, 1 h, bracketed figure after some values (e.g. −1.2) is undefined and not reported", "value": 5.26}, {"measurement": "pIC50", "setting": "recombinant human GALK1; read-out: hGALK, recombinant human GALK1, Kinase-Glo Plus ATP depletion", "value": 5.26}]}]}
